Results: patent publication US20040265859A1 (CORNELL RESEARCH FOUNDATION, published 2004)

By UniProt entry, the sequences of proteins in these tests, tags left out. Residues count along the entry.
UniProt P16144, 28-1822: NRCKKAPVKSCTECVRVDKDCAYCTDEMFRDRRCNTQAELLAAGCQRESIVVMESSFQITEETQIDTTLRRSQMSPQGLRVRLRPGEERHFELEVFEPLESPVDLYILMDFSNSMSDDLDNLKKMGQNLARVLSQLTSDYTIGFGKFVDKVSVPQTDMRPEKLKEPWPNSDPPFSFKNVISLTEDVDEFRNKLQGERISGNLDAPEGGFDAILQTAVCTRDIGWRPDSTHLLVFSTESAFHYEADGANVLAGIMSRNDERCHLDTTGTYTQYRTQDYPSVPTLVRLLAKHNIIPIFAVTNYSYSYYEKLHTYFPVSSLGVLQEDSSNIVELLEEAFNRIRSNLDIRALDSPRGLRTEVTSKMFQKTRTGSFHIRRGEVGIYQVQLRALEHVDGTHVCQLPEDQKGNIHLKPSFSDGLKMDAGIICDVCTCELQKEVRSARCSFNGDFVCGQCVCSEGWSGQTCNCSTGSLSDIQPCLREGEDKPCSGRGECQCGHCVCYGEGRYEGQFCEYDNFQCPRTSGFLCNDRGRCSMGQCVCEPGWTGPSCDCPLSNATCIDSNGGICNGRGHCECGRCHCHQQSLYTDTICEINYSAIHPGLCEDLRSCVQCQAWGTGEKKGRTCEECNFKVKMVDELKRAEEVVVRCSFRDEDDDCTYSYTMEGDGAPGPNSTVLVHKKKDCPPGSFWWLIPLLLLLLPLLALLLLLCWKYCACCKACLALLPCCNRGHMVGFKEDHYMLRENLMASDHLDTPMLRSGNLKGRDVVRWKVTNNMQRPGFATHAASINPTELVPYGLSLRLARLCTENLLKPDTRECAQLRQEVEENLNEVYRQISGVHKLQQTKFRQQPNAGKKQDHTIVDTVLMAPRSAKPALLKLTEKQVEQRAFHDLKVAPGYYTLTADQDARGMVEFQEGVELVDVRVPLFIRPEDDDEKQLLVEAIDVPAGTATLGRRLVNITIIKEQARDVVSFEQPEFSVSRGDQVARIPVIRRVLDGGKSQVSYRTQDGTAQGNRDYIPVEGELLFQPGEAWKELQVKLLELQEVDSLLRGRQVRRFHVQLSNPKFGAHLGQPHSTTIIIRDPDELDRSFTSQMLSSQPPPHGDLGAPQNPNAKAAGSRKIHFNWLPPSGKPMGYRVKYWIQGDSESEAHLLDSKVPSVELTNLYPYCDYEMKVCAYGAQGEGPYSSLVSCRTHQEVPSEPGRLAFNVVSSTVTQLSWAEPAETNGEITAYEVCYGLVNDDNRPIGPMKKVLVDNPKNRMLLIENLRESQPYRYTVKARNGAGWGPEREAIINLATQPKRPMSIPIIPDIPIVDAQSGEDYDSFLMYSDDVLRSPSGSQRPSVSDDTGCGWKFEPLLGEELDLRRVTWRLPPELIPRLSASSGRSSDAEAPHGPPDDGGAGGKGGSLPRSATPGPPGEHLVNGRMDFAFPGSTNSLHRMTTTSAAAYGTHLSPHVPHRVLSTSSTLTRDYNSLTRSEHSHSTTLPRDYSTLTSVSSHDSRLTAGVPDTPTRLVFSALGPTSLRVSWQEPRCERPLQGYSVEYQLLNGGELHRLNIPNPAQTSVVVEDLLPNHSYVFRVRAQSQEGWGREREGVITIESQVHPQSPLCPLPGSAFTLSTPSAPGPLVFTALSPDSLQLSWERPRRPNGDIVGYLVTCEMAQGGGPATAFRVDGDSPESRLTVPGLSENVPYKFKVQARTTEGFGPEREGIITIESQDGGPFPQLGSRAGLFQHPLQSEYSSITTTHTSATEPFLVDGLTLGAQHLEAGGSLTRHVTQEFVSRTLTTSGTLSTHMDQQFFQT

Molecular target: T1, β4 integrin, immunopurified (from MDA-MB-231L cells) (human, UniProt P16144)
T1 construct: mature; also called immunopurified β4 integrin; soluble β4
Assay: ELISA, β4 integrin coated at 15 µg/ml, 1 mm MnCl2

binding result: no binding
B1: GST (glutathione S-transferase), control (other, UniProt P08515 1-218, looked up)
chain: MSPILGYWKIKGLVQPTRLLLEYLEEKYEEHLYERDEGDKWRNKKFELGLEFPNLPYYIDGDVKLTQSMAIIRYIADKHNMLGGCPKERAEISMLEGAVLDIRYGVSRIAYSKDFETLKVDFLSKLPEMLKMFEDRLCHKTYLNGDHVTHPDFMLYDALDVVLYMDPMCLDAFPKLVCFKKRIEAIPQIDKYLKSSKYIAWPLQGWQATFGGGDHPPK
